# Laboratory results: ChEMBL document CHEMBL4699404, “Arylsulfonyl histamine derivatives as powerful and selective alpha-glucosidase inhibitors” (RSC Med Chem, 2020)
# The chains behind the UniProt entries cited, without tags or fusion partners. Where a name states a change or a piece, a line headed by the entry shows the natural chain unless it says otherwise.
# UniProt O42275: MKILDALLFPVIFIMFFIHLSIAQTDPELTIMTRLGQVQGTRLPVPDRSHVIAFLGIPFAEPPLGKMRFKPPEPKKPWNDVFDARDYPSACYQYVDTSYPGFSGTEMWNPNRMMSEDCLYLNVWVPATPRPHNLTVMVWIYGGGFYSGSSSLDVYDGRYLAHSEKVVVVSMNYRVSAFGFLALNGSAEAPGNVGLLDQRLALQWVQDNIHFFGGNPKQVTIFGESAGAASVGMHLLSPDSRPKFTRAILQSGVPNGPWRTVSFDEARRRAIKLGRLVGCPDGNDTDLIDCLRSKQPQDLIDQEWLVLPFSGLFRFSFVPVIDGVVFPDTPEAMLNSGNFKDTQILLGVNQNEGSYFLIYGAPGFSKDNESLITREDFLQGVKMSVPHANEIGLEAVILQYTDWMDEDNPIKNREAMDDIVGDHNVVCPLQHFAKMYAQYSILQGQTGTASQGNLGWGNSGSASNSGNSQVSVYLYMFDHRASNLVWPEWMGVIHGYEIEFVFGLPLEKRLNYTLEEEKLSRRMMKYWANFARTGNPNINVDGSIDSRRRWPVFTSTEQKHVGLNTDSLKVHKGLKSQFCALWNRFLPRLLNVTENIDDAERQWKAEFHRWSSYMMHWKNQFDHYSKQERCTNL
# Molecular target: Acetylcholinesterase (Electrophorus electricus, UniProt O42275)
compound,measurement,value
CNC(=O)Oc1ccc2c(c1)[C@]1(C)CCN(C)[C@@H]1N2C [PHYSOSTIGMINE],IC50,1170 nM
